Values quoted from earlier work, collected in patent US5776946A, “Peripheral benzodiazepine receptor ligands as antiinflammatory agents” (priority 1995, dated 1998).

Sequences of proteins named here, by UniProt entry; tags and fusion partners are left off.
UniProt P30536, whole entry: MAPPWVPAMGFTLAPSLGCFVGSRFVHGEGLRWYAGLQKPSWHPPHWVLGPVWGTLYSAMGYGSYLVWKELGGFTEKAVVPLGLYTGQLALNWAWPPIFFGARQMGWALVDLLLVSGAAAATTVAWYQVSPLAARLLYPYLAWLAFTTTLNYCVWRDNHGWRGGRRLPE

Biological target: T1, peripheral benzodiazepine receptors in brain (Homo sapiens, UniProt P30536)
T1 construct: In brain, this has been determined to be 3.5 nM for PK 11195 itself; host or cells: brain (Doble et al., 1987)
Settings: read-out: ability to displace bound PK 11195 from peripheral benzodiazepine receptors (Ki); cited from earlier work

O=C1CN=C(c2ccccc2Cl)c2cc([N+](=O)[O-])ccc2N1 [clonazepam]
Ki: 46 µM
